Ab-14 heavy chain CDR variants: yeast mating affinities

Binding partner: SARS-CoV-2 spike HR2 peptide, sequence PDVDLGDISGINAS.

Parent: Ab-14, a human scFv built as VH, three GGGGS repeats, VL. Only the CDRs of the heavy chain vary.
VH: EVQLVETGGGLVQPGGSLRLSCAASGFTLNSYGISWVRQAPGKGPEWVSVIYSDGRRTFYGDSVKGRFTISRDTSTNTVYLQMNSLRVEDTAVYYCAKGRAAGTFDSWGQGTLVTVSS
VL: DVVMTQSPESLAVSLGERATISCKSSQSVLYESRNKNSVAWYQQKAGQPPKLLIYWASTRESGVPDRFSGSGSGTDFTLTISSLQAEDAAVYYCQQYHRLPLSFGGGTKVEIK

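The parent was found by panning a naive human phage display library on the peptide. These sequences belong to a second round, designed from the earlier measurements on random variants of the parent. Their group label is 14H_En_Gen (En: ensemble of fine-tuned language models; Gen: genetic algorithm). AlphaSeq pools MATa yeast showing the antibodies with MATalpha yeast showing the peptide. Mating (16 h, 30 °C) was followed by selection of diploids and sequencing of their barcodes. A regression on co-assayed BCL2-family reference pairs converts the normalised counts of each replicate to an apparent Kd. Each pool was mated in six replicate cultures.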

The parent's heavy chain CDRs are GFTLNSYGIS, VIYSDGRRTFYGDSVK, GRAAGTFDS; each variant's own CDRs replace them letter for letter.
Scale: log10 of Kd in nM, estimated from mating counts; low values are strong binders.
Averages over replicates are reported, and they cover detected replicates only.
An entry "nd" has no value in the source: the pair was not observed among the diploids in that replicate. This suggests poor binding but is not conclusive.
Values of this round are not directly comparable with the first-round values of the same sequences.

CDR-H1	CDR-H2	CDR-H3	log10 Kd, replicates	mean log10 Kd (nM)	control signals
GFDLDEYGIS	VIYADGKRTAYSDSVK	GNVAGTFDI	0.44 / -0.52 / -0.64 / -0.59 / -0.56 / -0.59	-0.41	1/18 (1.62)
GFDLNEYGIS	VIYADGVRTYYADSVK	GENAGTFDM	-0.01 / 0.15 / 0.46 / -0.18 / -0.18 / 0.08	0.05	1/18 (1.40)
GFDLNEYGIS	VIYADGVRTAYADNVK	GTNAGTFDV	-0.48 / -0.78 / -0.78 / -0.55 / -0.30 / 0.08	-0.47	0/18
GFDLDEYGIS	VIYADGMRTAYSDDVK	GNNAGTFDV	-0.24 / 0.91 / -0.10 / 0.08 / 1.67 / 1.16	0.58	1/18 (1.98)
GFDLDEYGIS	VIYADGMRTAYADDVK	GENAGTFDQ	-0.05 / -0.40 / -0.37 / -0.50 / -0.56 / -0.23	-0.35	0/18
GFDLNEYGIS	VIYADGKRTAYSDDVK	GNVAGTFDV	-0.29 / -0.74 / -0.64 / -0.51 / -0.52 / -0.60	-0.55	0/18
GFDLNEYGIS	VIYADGRRTAYADSVK	GQNAGTFDL	nd / nd / nd / nd / nd / nd	nd	0/18
GFDLDEYGIS	VIYADGQRTYYADSVK	GNQAGTFDV	-0.23 / -0.45 / nd / -0.51 / 0.01 / 0.76	-0.08	0/18
GFDLDEYGIS	VIYADGMRTAYADSVK	GNNAGTFDT	-0.23 / 0.15 / 0.10 / -0.03 / -0.07 / 0.22	0.02	0/18
GFDLNEYGIS	VIYADGRRTAYADSVK	GENAGTFDM	-0.48 / -0.65 / -0.81 / -0.87 / -0.53 / -0.71	-0.68	0/18
GFDLDEYGIS	VIYADGMRTVYADSVK	GENAGTFDI	-0.25 / -0.28 / -0.79 / -0.32 / -0.18 / -0.30	-0.35	0/18
GFDLNEYGIS	VIYADGVRTAYVDDVK	GQNAGTFDV	-0.45 / -0.46 / -0.68 / -0.60 / -0.48 / 0.03	-0.44	0/18
GFDLDEYGIS	VIYADGKRTAYADSVK	GEVAGTFDT	-0.11 / -0.40 / -0.23 / -0.31 / -0.35 / 0.03	-0.23	0/18
GFDLNEYGIS	VIYADGSRKAYADDVK	GNVAGTFDV	0.12 / -0.56 / -0.58 / -0.58 / -0.64 / -0.29	-0.42	0/18
GFDLEDYGIS	VIYADGMRTAYADSVK	GNVAGTFDI	-0.44 / -0.24 / -0.47 / -0.65 / -0.60 / -0.42	-0.47	1/18 (2.25)
GFDLNEYGIS	VIYADGKRTAYTDDVK	GNVAGTFDV	-0.31 / -0.45 / -0.52 / -0.68 / -0.41 / -0.31	-0.44	1/18 (3.38)
GFDLNEYGIS	VIYADGMRTAYSDSVK	GTNAGTFDM	0.43 / -0.08 / -0.41 / -0.44 / -0.50 / -0.33	-0.22	0/18
GFDLNEYGIS	VIYADGVRQAYADSVK	GNTAGTFDV	-0.43 / -0.21 / -0.55 / -0.57 / -0.48 / -0.25	-0.41	0/18
GFDLNEYGIS	VIYADGMRTAYSDNVK	GNVAGTFDT	-0.41 / -0.51 / -0.32 / -0.87 / -0.95 / -0.55	-0.60	0/18
GFDLDEYGIS	VIYADGQRTAYVDSVK	GENAGTFDV	-0.53 / 0.00 / -0.57 / -0.65 / -0.37 / -0.33	-0.41	0/18
GFDLNEYGIS	VIYADGMRTAYADNVK	GEIAGTFDV	-0.49 / -0.20 / -0.47 / -0.60 / -0.43 / -0.28	-0.41	0/18
GFDLDEYGIS	VIYADGRRTYYADSVK	GNVAGTFDL	0.43 / 0.59 / 0.14 / 2.52 / 0.19 / 1.16	0.84	0/18
GFDLNEYGIS	VIYADGVRTSYADDVK	GNVAGTFDV	nd / nd / nd / nd / nd / nd	nd	0/18
GFDLNEYGIS	VIYADGMRTFYSDSVK	GNNAGTFDI	-0.62 / -0.33 / -0.72 / -0.92 / -0.88 / -0.49	-0.66	0/18
GFDLNEYGIS	VIYADGMRTAYTDDVK	GEVAGTFDV	0.44 / -0.22 / -0.18 / -0.74 / -0.34 / -0.15	-0.20	0/18
GFDLNEYGIS	VIYADGKRTAYADDVK	GEVAGTFDL	-0.03 / -0.37 / -0.47 / -0.82 / -0.29 / -0.16	-0.36	0/18
GFDLNEYGIS	VIYADGMRTAYSDSVK	GGNAGTFDT	-0.08 / -0.20 / -0.13 / -0.86 / -0.30 / -0.01	-0.26	0/18
GFDLDEYGIS	VIYADGMRTAYADSVK	GENAGTFDL	-0.35 / -0.60 / -0.39 / -0.63 / -0.83 / 0.58	-0.37	0/18
GFDLDEYGIS	VIYADGSRTAYADSVK	GANAGTFDV	-0.33 / -0.38 / -0.91 / -0.47 / 0.69 / -0.51	-0.32	0/18
GFDLDEYGIS	VIYADGMRTAYADNVK	GNVAGTFDT	-0.28 / 0.27 / -0.11 / -0.03 / -0.20 / -0.03	-0.07	0/18
GFDLNEYGIS	VIYADGRRTAYADSVK	GTNAGTFDL	-0.16 / -0.41 / -0.63 / -0.86 / -0.41 / -0.82	-0.55	0/18
GFDLNEYGIS	VIYADGMRTSYADSVK	GQNAGTFDM	0.22 / -0.36 / 0.37 / 0.07 / -0.15 / 0.90	0.18	1/18 (0.95)
GFDLDEYGIS	VIYADGKRTAYADDVK	GEVAGTFDV	-0.21 / -0.08 / -0.46 / -0.09 / -0.28 / -0.25	-0.23	0/18
GFDLNEYGIS	VIYADGLRTAYSDSVK	GNQAGTFDV	-0.80 / -1.11 / -0.13 / nd / -0.76 / -0.63	-0.69	0/18
GFDLNEYGIS	VIYADGQRTAYADSVK	GEVAGTFDL	-0.19 / -0.22 / -0.50 / 0.01 / -0.42 / -0.46	-0.30	0/18
GFDLDEYGIS	VIYADGQRTAYADDVK	GNVAGTFDI	nd / 0.10 / 0.79 / -0.54 / 0.11 / -0.02	0.09	0/18
GFDLNEYGIS	VIYADGVRTAYSDSVK	GKNAGTFDV	-0.61 / -0.68 / -0.37 / -0.82 / -0.92 / -0.94	-0.72	0/18
GFDLNEYGIS	VIYADGMRTVYADSVK	GNTAGTFDI	-0.07 / 0.08 / -0.77 / -1.21 / -1.38 / -0.23	-0.60	0/18
GFDLNEYGIS	VIYADGQRTAYADKVK	GNVAGTFDT	-0.21 / nd / 0.12 / 0.89 / 0.60 / 1.36	0.55	0/18
GFDLDEYGIS	VIYADGRRTAYADSVK	GQTAGTFDV	-0.44 / -0.31 / -0.12 / -0.60 / 0.03 / -0.20	-0.28	0/18
GFDLNEYGIS	VIYADGMRTAYADSVK	GEVAGTFDL	-0.68 / -0.84 / -0.35 / -1.19 / -0.72 / -0.55	-0.72	0/18
GFNLDEYGIS	VIYADGMRTAYADSVK	GENAGTFDI	1.27 / 0.44 / 0.33 / 0.08 / 0.37 / 0.58	0.51	1/18 (2.07)
GFDLDEYGIS	VIYADGSRTAYSDSVK	GENAGTFDI	1.23 / 1.40 / 1.89 / 1.06 / 0.90 / 1.72	1.37	0/18
GFDLNEYGIS	VIYADGMRTAYSDSVK	GSNAGTFDT	-0.94 / -0.59 / -1.45 / -2.06 / -2.18 / -1.38	-1.43	0/18
GFDLNEYGIS	VIYADGMRTAYSDSVK	GENAGTFVQ	1.21 / 0.99 / 1.60 / 0.80 / 1.00 / 0.58	1.03	1/18 (3.00)
GFDLDEYGIS	VIYADGRRTVYADSVK	GNVAGTFDV	-0.51 / -0.72 / -0.64 / -0.77 / -0.61 / -0.49	-0.62	0/18
GFDLNEYGIS	VIYADGMRTSYADSVK	GNVAGTFDV	0.01 / -0.43 / -0.35 / -0.26 / 0.02 / -0.21	-0.20	0/18
GFDLDEYGIS	VIYADGKRTAYADSVK	GNQAGTFDV	-0.23 / -0.42 / 0.24 / -0.09 / -0.53 / -0.48	-0.25	0/18
GFDLNEYGIS	VIYADGMRTYYADSVK	GNEAGTFDV	0.02 / 0.34 / -0.35 / -0.32 / -0.55 / -0.26	-0.19	0/18

The first 7 entries again:

CDR-H1	CDR-H2	CDR-H3	log10 Kd, replicates	mean log10 Kd (nM)	control signals
GFDLDEYGIS	VIYADGKRTAYSDSVK	GNVAGTFDI	0.44 / -0.52 / -0.64 / -0.59 / -0.56 / -0.59	-0.41	1/18 (1.62)
GFDLNEYGIS	VIYADGVRTYYADSVK	GENAGTFDM	-0.01 / 0.15 / 0.46 / -0.18 / -0.18 / 0.08	0.05	1/18 (1.40)
GFDLNEYGIS	VIYADGVRTAYADNVK	GTNAGTFDV	-0.48 / -0.78 / -0.78 / -0.55 / -0.30 / 0.08	-0.47	0/18
GFDLDEYGIS	VIYADGMRTAYSDDVK	GNNAGTFDV	-0.24 / 0.91 / -0.10 / 0.08 / 1.67 / 1.16	0.58	1/18 (1.98)
GFDLDEYGIS	VIYADGMRTAYADDVK	GENAGTFDQ	-0.05 / -0.40 / -0.37 / -0.50 / -0.56 / -0.23	-0.35	0/18
GFDLNEYGIS	VIYADGKRTAYSDDVK	GNVAGTFDV	-0.29 / -0.74 / -0.64 / -0.51 / -0.52 / -0.60	-0.55	0/18
GFDLNEYGIS	VIYADGRRTAYADSVK	GQNAGTFDL	nd / nd / nd / nd / nd / nd	nd	0/18

The authors' rule: three or more of the six replicates give a measured affinity, fewer mean a poor binder.
Three control strains display no target. For all heavy chain designs, 1% of the pairings with them gave a signal, with a median of 2.08 and one signal in twenty below 0.84, so weak values seen in few replicates may be background. Also given: how often the same scFv was detected with the empty control strains, with their mean in brackets.
Of ten entries with the parent sequence, four were seen in most replicates (averages 0.34 to 2.37), three in one and three in none, so single entries are noisy.

Reference: Li et al. 2023, doi:10.1038/s41467-023-39022-2. File: FLAb, binding data.